Compound in the experiment: CN1CCN(CCOc2cc(OC3CCOCC3)c3c(Nc4c(Cl)ccc5c4OCO5)ncnc3c2)CC1 [Saracatinib] + N=C(N)NC(=N)NCCc1ccccc1 [Phenformin] (partner 250 µM)
The experiment in a line: relative viability (nuclei count vs DMSO), 5 days (fraction); higher = more cells survive. The following applies: first compound 0.02 µM. The gist of the method: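 For relative viability, nuclei counts in treated wells were divided by those in vehicle wells. Lung cancer cell lines had been pin-tool dosed in 1536-well plates the day after seeding and cultured for 5 days, then fixed and stained in one step (final 0.05% Triton X-100, 1% formaldehyde, 1 ug/ml Hoechst) and imaged at 4×. Doses were one drug alone or a fixed anchor-drug dose plus five library-drug doses (not always all listed) in √10 steps, and values are duplicate-plate medians.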

Regarding NCI-H2085, the relative viability came out at 0.792.

(Values after the supplement of paper PMC10307832.)
